Assay outcomes (PubChem)
A selection: hits, their analogues and other compounds. The true share with any hit is near 1.5%.
FN deposit inh: fibronectin deposition inhibition. inhibition, % at 12.6 µM. AID 743247. 0.086% of 350,000 active. AH1F fibroblasts, Alexa488-fibronectin deposition fluorescence, overnight;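 active means mean inhibition across replicates of 30% or more, regardless of how many single replicates reach that level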;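 further: positive control wells lacked labelled fibronectin entirely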
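Assay system: AH1F fibroblast monolayer, labelled fibronectin deposition. Amount: 10000 cells per well. Also added: labelled fibronectin 24 nM. Compound: single-point pinned compound. Incubation: cell attachment 1 h, compound and FN exposure overnight. Detection: fluorescence after three HBSS washes, excitation 485 nm, emission 525 nm. Read-out: inhibition of fibronectin deposition signal.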
PGC1a acetyl inh: lowers PGC1a acetylation signal in U2OS cells | inhibition, % at 15.6 µM | 0.17% of 350,000 active | AlphaScreen anti-acetyl-lysine; with virally co-expressed GCN5 acetyltransferase;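 active means every replicate shows inhibition of at least 40%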;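 further: 0% = neutral control wells and 100% = positive control wells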
Env fusion inh: inhibitors of HIV Env-mediated cell fusion; HeLa-JRFL Env/CEM21 cell fusion, luciferase; inhibition, % at 12.3 µM; 1.1% of 360,000 active;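 active means mean replicate inhibition score of at least 50 and every replicate individually at or above 50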;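 further: 0% = plate neutral controls and 100% = maraviroc near 300 nM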
UUG fidelity: yeast start codon fidelity modulation | S. cerevisiae UUG-firefly luciferase reporter, luminescence/redox ratio | activity score, % at 18.7 µM | 0.13% of 350,000 active | AID 602363;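 active means replicate mean at a twofold rise or more, about +100% in these data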;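 further: firefly luciferase made from a UUG start codon reports start codon fidelity; reporter light over untreated wells divided by growth signal over untreated wells; some hits fall short of that in this replicate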
Cneo AK release: Cryptococcus neoformans lysis via adenylate kinase release; C. neoformans lysis, adenylate kinase release luminescence, 4 h; normalised: neutral wells 0, clomiphene wells 100; lysis activity, % at 15 µM; 0.2% of 360,000 active;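 active means mean lysis activity across replicates of at least 80%, whatever share of replicates individually reach that level; inactive means mean lysis activity below 80%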
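Assay system: C. neoformans cells. Amount: yeast cell density of 5 × 10^6 cells/mL. Technique: AK luminescence. Buffer or medium: YPD. Times: static 4 h at 37 °C with compound, 1 h detection. Dosing: single-point compound dose. Read-out: lysis from increased AK signal.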
miR-122 sensor: inhibitors of miR-122 in Huh7 cells | Huh7 miR-122 Renilla luciferase sensor, 48 h; neutral wells = 0, positive control = 100 | activation (reporter increase), % at 12.5 µM | 0.3% of 340,000 active;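 active means mean replicate activation score at least 90 and every replicate individually at or above 90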;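 further: higher luciferase means less miR-122 activity so hits act as miR-122 inhibitors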
Numbers without * were called inactive; · = no result; [ ] = remark or other dose.

Labels used below – A = FN deposit inh; B = PGC1a acetyl inh; C = Env fusion inh; D = UUG fidelity; E = Cneo AK release; F = miR-122 sensor
1) COc1ccc(CNCC(O)(c2ccc(Cl)cc2)c2ccc(Cl)cc2)cc1OC
  A = 21 | B = · | C = 63* | D = -5 | E = 0 | F = -7
2) COc1ccc(CNCC(O)(c2ccc(F)cc2)c2ccc(F)cc2)cc1OC
  A = -3 | B = · | C = 42 | D = 4 | E = 2 | F = -9
3) N#CC1=C(SCC(=O)NCc2ccccc2)NC(=O)CC1c1ccco1 (stereo not given)
  A = · | B = 2 | C = · | D = -11 | E = -1 | F = -4
4) CCCCNc1nc2ccccc2[nH]1
  A = · | B = 6 | C = · | D = · | E = · | F = -3
5) COc1ccc(C)c2sc(N(CCCN(C)C)C(=O)c3ccc(S(=O)(=O)N4CCc5ccccc5C4)cc3)nc12
  A = 6 | B = 22 | C = 92* | D = -3 | E = 12 | F = -21
6) COc1cccc2sc(N(CCCN(C)C)C(=O)c3ccc(S(=O)(=O)N4CCc5ccccc5C4)cc3)nc12
  A = · | B = · | C = -48 | D = 14 | E = 1 | F = ·
7) O=C(Cc1ccccn1)NCC[C@@H]1CC[C@@H](NC(=O)Nc2ccc(C(F)(F)F)cc2)[C@H](CO)O1
  A = 7 | B = -2 | C = -1[16.7 µM] | D = 8 | E = 1 | F = ·
8) O=C(Cc1ccccn1)NCC[C@@H]1CC[C@H](NC(=O)Nc2ccc(C(F)(F)F)cc2)[C@@H](CO)O1
  A = -5 | B = 50* | C = 6[16.7 µM] | D = -1 | E = -2 | F = ·
9) O=C(Cc1ccccn1)NCC[C@@H]1CC[C@@H](NC(=O)Nc2ccc(C(F)(F)F)cc2)[C@@H](CO)O1
  A = 10 | B = 45* | C = 1[16.7 µM] | D = -8 | E = 4 | F = ·
10) CCc1ccccc1NC(=O)c1cccc(NC(=O)/C=C/c2ccco2)c1
  A = 10 | B = · | C = 8 | D = -15 | E = -6 | F = 23

(list continues)
Labels used below – A = FN deposit inh; B = PGC1a acetyl inh; C = Env fusion inh; D = UUG fidelity; E = Cneo AK release; F = miR-122 sensor
11) O=C(/C=C/c1ccco1)Nc1cccc(C(=O)Nc2ccccc2C(=O)O)c1
  A = -2 | B = -3 | C = 88* | D = 10 | E = -4 | F = -2
12) O=C1/C(=C/c2ccncc2)CCC/C1=C\c1ccncc1
  A = 1 | B = 78* | C = 89* | D = -14 | E = -9 | F = -78
13) COc1ccc(NC(=O)CN2CCN(S(=O)(=O)c3ccc(C(C)C)cc3)CC2)cc1OC
  A = · | B = -20 | C = · | D = -2 | E = 130* | F = 0
14) COc1ccc(/C=C/c2c(-c3ccc(OC)cc3)oc3ccccc23)cc1
  A = -4 | B = -4 | C = 56* | D = -5 | E = 1 | F = 3
15) CNC[C@H](CC1CCCCC1)NC[C@H](Cc1ccccc1)NCCC12CC3CC(CC(C3)C1)C2
  A = 60* | B = · | C = 93* | D = -3 | E = 19 | F = ·
16) COc1ccccc1CN1C(=O)CN(C2CCCCCC2)C(=O)C1c1ccc(F)cc1 (stereo not given)
  A = 5 | B = -30 | C = 82* | D = -12 | E = 3 | F = ·
17) C[C@H]1CN([C@@H](C)CO)C(=O)c2cccc(NC(=O)C3CC3)c2O[C@@H]1CN(C)Cc1ccc(C(F)(F)F)cc1
  A = · | B = -15 | C = -5[16.7 µM] | D = -5 | E = -1 | F = 113*[16.7 µM]
18) C[C@H](CO)N1C[C@H](C)[C@H](CN(C)Cc2ccc(C(F)(F)F)cc2)Oc2c(NC(=O)C3CCCCC3)cccc2C1=O
  A = · | B = -8 | C = · | D = -5 | E = -1 | F = 12[16.7 µM]
19) C[C@@H]1CN([C@@H](C)CO)C(=O)c2cccc(NC(=O)C3CCCCC3)c2O[C@H]1CN(C)Cc1ccccc1
  A = · | B = · | C = 63*[16.7 µM] | D = 9 | E = -2 | F = 3[16.7 µM]
20) C[C@H](CO)N1C[C@H](C)[C@@H](CN(C)Cc2ccccc2)Oc2c(NC(=O)C3CCCCC3)cccc2C1=O
  A = -23 | B = · | C = 7[16.7 µM] | D = 29 | E = -10 | F = 44[16.7 µM]

(cont.)
Labels used below – A = FN deposit inh; B = PGC1a acetyl inh; C = Env fusion inh; D = UUG fidelity; E = Cneo AK release; F = miR-122 sensor
21) C[C@H]1CN([C@@H](C)CO)C(=O)c2cccc(NC(=O)C3CCCCC3)c2O[C@@H]1CN(C)Cc1ccc(C(F)(F)F)cc1
  A = · | B = -7 | C = · | D = 2 | E = -5 | F = 94*[16.7 µM]
22) COc1ccc(CN(C)C[C@@H]2Oc3c(NC(=O)Nc4cccc5ccccc45)cccc3C(=O)N([C@@H](C)CO)C[C@@H]2C)cc1
  A = · | B = -6 | C = · | D = 10 | E = 114* | F = 8[16.7 µM]
23) Cc1ccc(Cl)cc1N1CCN(CC(O)COCc2ccco2)CC1 (stereo not given)
  A = 7 | B = · | C = 14 | D = · | E = · | F = ·
24) Cc1onc(-c2c(F)cccc2Cl)c1C(=O)OCc1nnc(-c2ccccc2)o1
  A = 0 | B = 0 | C = · | D = -9 | E = -1 | F = -1
25) C[C@H]1CN([C@@H](C)CO)C(=O)c2cccc(NC(=O)C3CCOCC3)c2O[C@@H]1CN(C)Cc1ccc(C(F)(F)F)cc1
  A = · | B = -22 | C = · | D = -2 | E = 1 | F = 105*[16.7 µM]
26) C[C@@H]1CN([C@@H](C)CO)C(=O)c2cccc(NC(=O)C3CCCCC3)c2O[C@H]1CN(C)Cc1ccc(C(F)(F)F)cc1
  A = · | B = -21 | C = · | D = 5 | E = -5 | F = 52[16.7 µM]
27) CNC[C@H]1Oc2c(NC(=O)Nc3ccc(C(F)(F)F)cc3)cccc2C(=O)N([C@H](C)CO)C[C@H]1C
  A = -3 | B = -1 | C = -5[16.7 µM] | D = 9 | E = -2 | F = -9[16.7 µM]
28) C[C@@H]1CN([C@@H](C)CO)C(=O)c2cccc(NC(=O)C3CCOCC3)c2O[C@@H]1CN(C)Cc1ccc(C(F)(F)F)cc1
  A = · | B = 8 | C = · | D = -7 | E = 0 | F = 2[16.7 µM]
29) C[C@H](CO)N1C[C@H](C)[C@@H](CN(C)Cc2ccc(C(F)(F)F)cc2)Oc2c(NC(=O)C3CCCCC3)cccc2C1=O
  A = · | B = -27 | C = · | D = 8 | E = 4 | F = 122*[16.7 µM]
30) CNC[C@H]1Oc2c(NC(=O)Nc3ccc(C(F)(F)F)cc3)cccc2C(=O)N([C@@H](C)CO)C[C@H]1C
  A = 8 | B = -3 | C = 63*[16.7 µM] | D = 12 | E = -2 | F = -1[16.7 µM]

Gathered by group: the compounds so far containing two or more sulfur atoms
Labels used below – A = FN deposit inh; B = PGC1a acetyl inh; C = Env fusion inh; D = UUG fidelity; E = Cneo AK release; F = miR-122 sensor
5) COc1ccc(C)c2sc(N(CCCN(C)C)C(=O)c3ccc(S(=O)(=O)N4CCc5ccccc5C4)cc3)nc12
  A = 6 | B = 22 | C = 92* | D = -3 | E = 12 | F = -21
6) COc1cccc2sc(N(CCCN(C)C)C(=O)c3ccc(S(=O)(=O)N4CCc5ccccc5C4)cc3)nc12
  A = · | B = · | C = -48 | D = 14 | E = 1 | F = ·

More compounds:
Labels used below – A = FN deposit inh; B = PGC1a acetyl inh; C = Env fusion inh; D = UUG fidelity; E = Cneo AK release; F = miR-122 sensor
31) C[C@@H]1CN([C@@H](C)CO)C(=O)c2cccc(NC(=O)Nc3ccccc3)c2O[C@H]1CN(C)Cc1ccc(C(F)(F)F)cc1
  A = · | B = · | C = -9[16.7 µM] | D = 5 | E = 0 | F = 115*[16.7 µM]
32) C[C@H]1CN([C@@H](C)CO)C(=O)c2cccc(NC(=O)NC3CCCCC3)c2O[C@@H]1CN(C)Cc1ccc(C(F)(F)F)cc1
  A = -13 | B = -5 | C = 10[16.7 µM] | D = 7 | E = -2 | F = 121*[16.7 µM]
33) C[C@@H]1CN([C@@H](C)CO)C(=O)c2cccc(NC(=O)NC3CCCCC3)c2O[C@@H]1CN(C)Cc1ccc(C(F)(F)F)cc1
  A = 1 | B = 5 | C = 15[16.7 µM] | D = 5 | E = 1 | F = 8[16.7 µM]
34) COc1ccc([C@@H]2[C@@H]3C(=O)N(C(C)(C)C)C(=O)[C@@H]3[C@]3(C)C(=O)N(c4ccccc4)C(=O)N23)cc1
  A = -18 | B = · | C = 26 | D = -7 | E = 4 | F = ·
35) Cc1cccc(N2C(=O)N3[C@H](c4ccc(Br)cc4)[C@@H]4C(=O)N(C(C)(C)C)C(=O)[C@@H]4[C@]3(C)C2=O)c1
  A = · | B = -15 | C = 112* | D = 1 | E = 0 | F = 0
36) Cc1ccc(N2C(=O)N3[C@H](c4ccc(Br)cc4)[C@@H]4C(=O)N(C(C)(C)C)C(=O)[C@@H]4[C@]3(C)C2=O)cc1
  A = 3 | B = -16 | C = 23 | D = 30 | E = -5 | F = -7
37) COc1ccc([C@@H]2[C@@H]3C(=O)N(C(C)(C)C)C(=O)[C@@H]3[C@]3(C)C(=O)N(c4cccc(Cl)c4)C(=O)N23)cc1
  A = 5 | B = -5 | C = 61* | D = 2 | E = 1 | F = -2
38) Cc1nc(CNS(=O)(=O)c2ccc3c(c2)CCCC3)cs1
  A = -17 | B = · | C = 60* | D = -7 | E = -1 | F = ·
39) CCOC(=O)c1ccc2c(c1)[n+](CC)c(C)n2-c1ccccc1
  A = · | B = 1 | C = -4 | D = -6 | E = -1 | F = 1
40) CO[C@H]1CN(C)C(=O)c2cc(NC(C)=O)ccc2OC[C@H](C)N(C(=O)CN2CCOCC2)C[C@@H]1C
  A = -57 | B = -3 | C = 2[16.7 µM] | D = -4 | E = 49 | F = -6[16.7 µM]
